Amino acid sequences for entries named in this document (tags omitted).
UniProt P29475, whole entry: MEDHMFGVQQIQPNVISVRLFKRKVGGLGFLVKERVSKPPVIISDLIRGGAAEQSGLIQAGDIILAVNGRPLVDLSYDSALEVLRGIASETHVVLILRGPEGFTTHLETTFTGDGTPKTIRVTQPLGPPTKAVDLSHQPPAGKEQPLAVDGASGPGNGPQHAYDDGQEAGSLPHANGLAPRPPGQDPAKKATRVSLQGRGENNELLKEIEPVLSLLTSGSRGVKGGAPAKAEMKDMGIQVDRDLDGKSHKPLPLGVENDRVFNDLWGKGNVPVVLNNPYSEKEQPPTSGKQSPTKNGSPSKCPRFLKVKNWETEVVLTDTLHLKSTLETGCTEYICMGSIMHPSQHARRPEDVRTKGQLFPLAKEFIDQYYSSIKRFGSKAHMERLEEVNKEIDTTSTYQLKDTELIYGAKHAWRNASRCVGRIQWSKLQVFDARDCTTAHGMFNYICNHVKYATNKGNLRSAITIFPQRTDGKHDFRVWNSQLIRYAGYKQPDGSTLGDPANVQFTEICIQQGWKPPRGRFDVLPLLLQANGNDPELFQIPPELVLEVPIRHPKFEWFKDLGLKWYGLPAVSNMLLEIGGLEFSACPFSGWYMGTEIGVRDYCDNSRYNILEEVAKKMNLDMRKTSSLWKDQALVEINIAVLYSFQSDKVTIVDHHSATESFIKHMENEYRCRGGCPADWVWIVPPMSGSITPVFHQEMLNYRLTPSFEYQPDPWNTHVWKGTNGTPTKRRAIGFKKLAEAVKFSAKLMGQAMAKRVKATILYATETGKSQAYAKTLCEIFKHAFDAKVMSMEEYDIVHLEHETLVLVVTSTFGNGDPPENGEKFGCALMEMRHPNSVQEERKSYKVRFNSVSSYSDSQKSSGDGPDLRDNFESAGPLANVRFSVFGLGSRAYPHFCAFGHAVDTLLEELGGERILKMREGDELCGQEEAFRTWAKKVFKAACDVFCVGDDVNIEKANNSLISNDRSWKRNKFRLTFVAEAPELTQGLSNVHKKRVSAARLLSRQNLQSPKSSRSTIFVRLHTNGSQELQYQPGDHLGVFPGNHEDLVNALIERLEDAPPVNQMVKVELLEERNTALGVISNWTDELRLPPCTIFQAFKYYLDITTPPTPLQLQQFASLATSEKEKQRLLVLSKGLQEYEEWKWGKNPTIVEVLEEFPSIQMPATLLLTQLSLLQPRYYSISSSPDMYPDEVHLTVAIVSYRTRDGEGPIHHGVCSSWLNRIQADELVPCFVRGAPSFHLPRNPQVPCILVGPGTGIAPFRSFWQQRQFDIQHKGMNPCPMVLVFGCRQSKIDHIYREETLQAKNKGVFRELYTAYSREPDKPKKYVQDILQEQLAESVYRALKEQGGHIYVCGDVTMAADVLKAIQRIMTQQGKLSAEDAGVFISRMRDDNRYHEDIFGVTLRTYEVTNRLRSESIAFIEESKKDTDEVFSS

In BindingDB's records for doi:10.1021/bi9007098 (The University of Texas, 2009):

Target: Nitric oxide synthase, brain (Homo sapiens, UniProt P29475)
Assay: Inhibition Assay
From the text: Inhibition assay using DDAH-1 and nNOS.

Ki: 20 µM
SMILES: CCCCC(=N)NCCC[C@H](N)C(=O)O [nNOS and DDAH inhibitor, 14]
